Patent US6927230B2, “Triazole derivatives” (Fujisawa Pharmaceutical Co., Ltd., priority 2001, dated 2005)

Chains of the proteins cited; added tags and fusions are not shown. Residues count along the entry.
UniProt P23219, 24-599: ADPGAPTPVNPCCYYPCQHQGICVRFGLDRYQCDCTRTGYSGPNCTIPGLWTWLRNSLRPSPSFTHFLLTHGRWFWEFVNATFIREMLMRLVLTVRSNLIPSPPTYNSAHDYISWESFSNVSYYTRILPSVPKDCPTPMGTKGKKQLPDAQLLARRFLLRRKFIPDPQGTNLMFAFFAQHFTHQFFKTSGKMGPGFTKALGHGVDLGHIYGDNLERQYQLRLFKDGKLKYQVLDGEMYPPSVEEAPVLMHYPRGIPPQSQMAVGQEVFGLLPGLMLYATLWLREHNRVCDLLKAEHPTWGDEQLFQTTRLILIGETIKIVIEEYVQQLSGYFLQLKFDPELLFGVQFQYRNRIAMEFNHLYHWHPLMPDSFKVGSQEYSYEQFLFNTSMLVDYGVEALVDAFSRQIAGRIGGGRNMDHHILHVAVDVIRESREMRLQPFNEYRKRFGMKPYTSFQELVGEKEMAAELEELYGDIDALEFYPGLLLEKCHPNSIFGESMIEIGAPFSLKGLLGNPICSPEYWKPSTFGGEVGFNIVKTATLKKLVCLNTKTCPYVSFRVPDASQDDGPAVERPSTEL

Biological target: T1, COX-I (Homo sapiens, UniProt P23219)
T1 construct: Fresh blood was collected by syringe without anticoagulants from volunteers with consent; from tissue; host or cells: fresh human whole blood from volunteers, no anticoagulant, allowed to clot
Experiment: Whole blood assay for COX-I (TXB2 production)
Type: cell-based
Conditions: 1 hr at 37 C
Procedure: Fresh blood was collected by syringe without anticoagulants from volunteers with consent. The subjects had no apparent inflammatory conditions and had not taken any medication for at least 7 days prior to blood collection. 500 μl aliquots of human whole blood were immediately incubated with 2 μl of either DMSO vehicle or a test compound at final concentrations for 1 hr at 37 C. to allow the blood to clot. Appropriate treatments (no incubation) were used as blanks. At the end of the incubation, 5 μl of 250 mM Indomethacin was added to stop the reaction. The blood was centrifuged at 6000×g for 5 min at 4 C to obtain serum. A 100 μl aliquot of serum was mixed with 400 μl methanol for protein precipitation. The supernatant was obtained by centrifuging at 6000×g for 5 min at 4 C and was assayed for TXB2 using an enzyme immunoassay kit according to the manufacturer's procedure. For a test compound, the results were expressed as percent inhibition of TXB2 production relative to control incubations containing DMSO vehicle. The data were analyzed by that a test compound at the indicated concentrations was changed log value and was applied simple linear regression. IC50 value was calculated by least squares method.

SMILES | IC50
COc1ccc(-c2nc(OC)nn2-c2ccc(OC)cc2)cc1 [5(4), 3-Methoxy-1,5-bis(4-methoxyphenyl)-1H-1,2,4-triazole] | < 10 nM
COc1ccc(-c2nc(OCC(F)(F)F)nn2-c2ccc(OC)cc2)cc1 [Example 13, 1,5-bis(4-methoxyphenyl)-3-(2,2,2-trifluoroethoxy)-1H-1,2,4-triazole] | < 10 nM
COc1ccc(-c2nc(OCF)nn2-c2ccc(OC)cc2)cc1 [Example 24, 1,5-bis(4-methoxyphenyl)-3-(fluoromethoxy)-1H-1,2,4-triazole] | < 10 nM
